Here are results for 19 compounds from US20230340011A1 (Asteroid Therapeutics, priority 2022, published 2023).

Chains of the proteins cited; added tags and fusions are not shown.
UniProt P55055, whole entry: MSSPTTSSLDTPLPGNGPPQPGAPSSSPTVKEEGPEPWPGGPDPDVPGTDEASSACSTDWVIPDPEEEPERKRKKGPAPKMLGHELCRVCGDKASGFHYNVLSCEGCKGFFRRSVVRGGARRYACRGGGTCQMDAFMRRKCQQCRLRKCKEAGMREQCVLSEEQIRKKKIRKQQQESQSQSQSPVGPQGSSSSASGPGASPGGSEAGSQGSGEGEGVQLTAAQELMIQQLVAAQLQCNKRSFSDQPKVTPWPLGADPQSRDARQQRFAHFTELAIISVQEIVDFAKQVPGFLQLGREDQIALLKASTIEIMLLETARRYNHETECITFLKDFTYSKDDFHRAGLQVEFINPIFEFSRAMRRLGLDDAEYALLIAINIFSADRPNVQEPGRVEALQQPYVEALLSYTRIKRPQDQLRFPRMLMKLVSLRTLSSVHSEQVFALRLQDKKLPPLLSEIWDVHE

The target in one experiment is LXRβ (Homo sapiens (Human), UniProt P55055). Description: In vitro assay LXRβ: PathHunter NHR CHO cells, LXRβ / Steroid Receptor Co-activator Peptide enzyme fragment complementation. In kind it is cell-based.
Settings: not given
How it is done: PathHunter NHR CHO cells stably transfected with tagged full-length human LXRβ and a nuclear fusion protein containing Steroid Receptor Co-activator Peptide (SRCP). The full-length human LXRβ was tagged with the ProLink™ component of the DiscoverX Enzyme Fragment Complementation (EFC) system and the SRCP domain is fused to the enzyme acceptor component (EA) expressed in the nucleus. Cells were seeded in a total volume of 20 μL into white walled, 384-well microplates and incubated at 37° C. overnight prior to testing. Assay media contained charcoal-dextran filtered serum to reduce the level of hormones present. Final assay vehicle concentration was 1%. […] Microplates were read following signal generation with a PerkinElmer Envision instrument for chemiluminescent signal detection.
For the compound `CC#CC1(O)CCN(C(=O)CC[C@@H](C)[C@H]2CC[C@H]3[C@@H]4CC=C5C[C@@H](O)CC[C@]5(C)[C@H]4CC[C@]23C)CC1` [Example 90, (R)-4-((3S,8S,9S,10R,13R,14S,17R)-3-hydroxy-10,13-dimethyl-2,3,4,7,8,9,10,11,12,13,14,15,16,17-tetradecahydro-1H-cyclopenta[a]phenanthren-17-yl)-1-(4-hydroxy-4-(prop-1-yn-1-yl)piperidin-1-yl)pentan-1-one], the EC50 was 250 to 1000 nM.

`CCCCC1(O)CCN(C(=O)CC[C@@H](C)[C@H]2CC[C@H]3[C@@H]4CC=C5C[C@@H](O)CC[C@]5(C)[C@H]4CC[C@]23C)CC1` [Example 92, (R)-1-(4-butyl-4-hydroxypiperidin-1-yl)-4-((3S,8S,9S,10R,13R,14S,17R)-3-hydroxy-10,13-dimethyl-2,3,4,7,8,9,10,11,12,13,14,15,16,17-tetradecahydro-1H-cyclopenta[a]phenanthren-17-yl)pentan-1-one]: the EC50 is 250 to 1000 nM.

Take `CC(C)CC1(O)CCN(C(=O)CC[C@@H](C)[C@H]2CC[C@H]3[C@@H]4CC=C5C[C@@H](O)CC[C@]5(C)[C@H]4CC[C@]23C)CC1` [Example 93, (R)-4-((3S,8S,9S,10R,13R,14S,17R)-3-hydroxy-10,13-dimethyl-2,3,4,7,8,9,10,11,12,13,14,15,16,17-tetradecahydro-1H-cyclopenta[a]phenanthren-17-yl)-1-(4-hydroxy-4-isobutylpiperidin-1-yl) pentan-1-one]: the EC50 is under 250 nM.

`C[C@H](CCC(=O)N1CCC(O)(C(F)F)CC1)[C@H]1CC[C@H]2[C@@H]3CC=C4C[C@@H](O)CC[C@]4(C)[C@H]3CC[C@]12C` [Example 128, (R)-1-(4-(difluoromethyl)-4-hydroxypiperidin-1-yl)-4-((3S,8S,9S,10R,13R,14S,17R)-3-hydroxy-10,13-dimethyl-2,3,4,7,8,9,10,11,12,13,14,15,16,17-tetradecahydro-1H-cyclopenta[a]phenanthren-17-yl)pentan-1-one] displayed an EC50 of under 250 nM.

Compound `CCC1(O)CCN(C(=O)CC[C@@H](C)[C@H]2CC[C@H]3[C@@H]4CC=C5C[C@@H](O)CC[C@]5(C)[C@H]4CC[C@]23C)CC1` [Example 129, (R)-1-(4-ethyl-4-hydroxypiperidin-1-yl)-4-((3S,8S,9S,10R,13R,14S,17R)-3-hydroxy-10,13-dimethyl-2,3,4,7,8,9,10,11,12,13,14,15,16,17-tetradecahydro-1H-cyclopenta[a]phenanthren-17-yl)pentan-1-one] showed an EC50 of under 250 nM.

`C=CC1(O)CCN(C(=O)CC[C@@H](C)[C@H]2CC[C@H]3[C@@H]4CC=C5C[C@@H](O)CC[C@]5(C)[C@H]4CC[C@]23C)CC1` [Example 146, (R)-4-((3S,8S,9S,10R,13R,14S,17R)-3-hydroxy-10,13-dimethyl-2,3,4,7,8,9,10,11,12,13,14,15,16,17-tetradecahydro-1H-cyclopenta[a]phenanthren-17-yl)-1-(4-hydroxy-4-vinylpiperidin-1-yl) pentan-1-one] gave an EC50 of under 250 nM.

As for `CCCC1(O)CCN(C(=O)CC[C@@H](C)[C@H]2CC[C@H]3[C@@H]4CC=C5C[C@@H](O)CC[C@]5(C)[C@H]4CC[C@]23C)CC1` [Example 148, (R)-4-((3S,8S,9S,10R,13R,14S,17R)-3-hydroxy-10,13-dimethyl-2,3,4,7,8,9,10,11,12,13,14,15,16,17-tetradecahydro-1H-cyclopenta[a]phenanthren-17-yl)-1-(4-hydroxy-4-propylpiperidin-1-yl) pentan-1-one], the EC50 is under 250 nM.

Compound `CC(C)C1(O)CCN(C(=O)CC[C@@H](C)[C@H]2CC[C@H]3[C@@H]4CC=C5C[C@@H](O)CC[C@]5(C)[C@H]4CC[C@]23C)CC1` [Example 149, (R)-4-((3S,8S,9S,10R,13R,14S,17R)-3-hydroxy-10,13-dimethyl-2,3,4,7,8,9,10,11,12,13,14,15,16,17-tetradecahydro-1H-cyclopenta[a]phenanthren-17-yl)-1-(4-hydroxy-4-isopropylpiperidin-1-yl) pentan-1-one] came in with an EC50 of 250 to 1000 nM.

`C[C@H](CCC(=O)N1CCC(O)(C2CCC2)CC1)[C@H]1CC[C@H]2[C@@H]3CC=C4C[C@@H](O)CC[C@]4(C)[C@H]3CC[C@]12C` [Example 194, (R)-1-(4-cyclobutyl-4-hydroxypiperidin-1-yl)-4-((3S,8S,9S,10R,13R,14S,17R)-3-hydroxy-10,13-dimethyl-2,3,4,7,8,9,10,11,12,13,14,15,16,17-tetradecahydro-1H-cyclopenta[a]phenanthren-17-yl)pentan-1-one] yielded an EC50 of 1000 to 10000 nM.

In the case of `COCCOC(=O)N1CCN(C(=O)CC[C@@H](C)[C@H]2CC[C@H]3[C@@H]4CC=C5C[C@@H](O)CC[C@]5(C)[C@H]4CC[C@]23C)CC1` [Example 280, 2-hydroxyethyl 4-[(4R)-4-[(1R,3aS,3bS,7S,9aR,9bS,11aR)-7-hydroxy-9a,11a-dimethyl-1H,2H,3H,3aH,3bH,4H,6H,7H,8H,9H,9aH,9bH,10H,11H,11aH-cyclopenta[a]phenanthren-1-yl]pentanoyl]piperazine-1-carboxylate], the EC50 is over 10000 nM.

For `C#CC1(OC)CCN(C(=O)CC[C@@H](C)[C@H]2CC[C@H]3[C@@H]4CC=C5C[C@@H](O)CC[C@]5(C)[C@H]4CC[C@]23C)CC1` [Example 330, (R)-1-(4-ethynyl-4-methoxypiperidin-1-yl)-4-((3S,8S,9S,10R,13R,14S,17R)-3-hydroxy-10,13-dimethyl-2,3,4,7,8,9,10,11,12,13,14,15,16,17-tetradecahydro-1H-cyclopenta[a]phenanthren-17-yl)pentan-1-one], the EC50 is 250 to 1000 nM.

`C[C@H](CCC(=O)N1CCC(O)(c2ccncc2)CC1)[C@H]1CC[C@H]2[C@@H]3CC=C4C[C@@H](O)CC[C@]4(C)[C@H]3CC[C@]12C` [Example 344, (R)-4-((3S,8S,9S,10R,13R,14S,17R)-3-hydroxy-10,13-dimethyl-2,3,4,7,8,9,10,11,12,13,14,15,16,17-tetradecahydro-1H-cyclopenta[a]phenanthren-17-yl)-1-(4-hydroxy-4-(pyridin-4-yl)piperidin-1-yl)pentan-1-one]: the EC50 was over 10000 nM.

The experiment is the same for the next values; noted with them: read-out: LXRβ PPI.
`C#CC1(O)CCN(C(=O)CC[C@@H](C)[C@H]2CC[C@H]3[C@@H]4CC=C5C[C@@H](O)CC[C@]5(C)[C@H]4CC[C@]23C)CC1` [Example 147, (R)-1-(4-ethynyl-4-hydroxypiperidin-1-yl)-4-((3S,8S,9S,10R,13R,14S,17R)-3-hydroxy-10,13-dimethyl-2,3,4,7,8,9,10,11,12,13,14,15,16,17-tetradecahydro-1H-cyclopenta[a]phenanthren-17-yl)pentan-1-one]: the EC50 is under 250 nM.

As to `C[C@H](CCC(=O)N1CCC(O)(CO)CC1)[C@H]1CC[C@H]2[C@@H]3CC=C4C[C@@H](O)CC[C@]4(C)[C@H]3CC[C@]12C` [Example 150, (R)-4-((3S,8S,9S,10R,13R,14S,17R)-3-hydroxy-10,13-dimethyl-2,3,4,7,8,9,10,11,12,13,14,15,16,17-tetradecahydro-1H-cyclopenta[a]phenanthren-17-yl)-1-(4-hydroxy-4-(hydroxymethyl)piperidin-1-yl)pentan-1-one], the EC50 was under 250 nM.

Consider `C[C@H](CCC(=O)N1CCC(O)(CC(F)(F)F)CC1)[C@H]1CC[C@H]2[C@@H]3CC=C4C[C@@H](O)CC[C@]4(C)[C@H]3CC[C@]12C` [Example 152, (R)-4-((3S,8S,9S,10R,13R,14S,17R)-3-hydroxy-10,13-dimethyl-2,3,4,7,8,9,10,11,12,13,14,15,16,17-tetradecahydro-1H-cyclopenta[a]phenanthren-17-yl)-1-(4-hydroxy-4-(2,2,2-trifluoroethyl)piperidin-1-yl) pentan-1-one], for which the EC50 was under 250 nM.

Turning to `CCN(CC)C(=O)C(=O)O[C@@H](C)[C@H]1CC[C@H]2[C@@H]3CC=C4C[C@@H](O)CC[C@]4(C)[C@H]3CC[C@]12C` [Example 154, (1S)-1-[(1S,3aS,3bS,7S,9aR,9bS,11aS)-7-hydroxy-9a,11a-dimethyl-1H,2H,3H,3aH,3bH,4H,6H,7H,8H,9H,9aH,9bH,10H,11H,11aH-cyclopenta[a]phenanthren-1-yl]ethyl (diethylcarbamoyl)formate], the EC50 was under 250 nM.

With `COc1cccnc1CC[C@@H](C)[C@H]1CC[C@H]2[C@@H]3CC=C4C[C@@H](O)CC[C@]4(C)[C@H]3CC[C@]12C` [Example 186, (1R,3aS,3bS,7S,9aR,9bS,11aR)-1-[(2R)-4-(3-methoxypyridin-2-yl)butan-2-yl]-9a,11a-dimethyl-1H,2H,3H,3aH,3bH,4H,6H,7H,8H,9H,9aH,9bH,10H,11H,11aH-cyclopenta[a]phenanthren-7-ol], the EC50 was under 250 nM.

Regarding `C[C@H](CCC(=O)N1CCCC(c2ccncc2)C1)[C@H]1CC[C@H]2[C@@H]3CC=C4C[C@@H](O)CC[C@]4(C)[C@H]3CC[C@]12C` (stereo partly drawn) [Example 346, (4R)-4-((3S,8S,9S,10R,13R,14S,17R)-3-hydroxy-10,13-dimethyl-2,3,4,7,8,9,10,11,12,13,14,15,16,17-tetradecahydro-1H-cyclopenta[a]phenanthren-17-yl)-1-(3-(pyridin-4-yl)piperidin-1-yl)pentan-1-one], the EC50 was under 250 nM.

In the case of `CCC1(O)CCN(C(=O)CC[C@@H](C)[C@H]2CC[C@H]3[C@@H]4CC=C5C[C@@](C)(O)CC[C@]5(C)[C@H]4CC[C@]23C)CC1` [Example 371, (R)-1-(4-ethyl-4-hydroxypiperidin-1-yl)-4-((3S,8S,9S,10R,13R,14S,17R)-3-hydroxy-3,10,13-trimethyl-2,3,4,7,8,9,10,11,12,13,14,15,16,17-tetradecahydro-1H-cyclopenta[a]phenanthren-17-yl)pentan-1-one], the EC50 was under 250 nM.
